Species on record: Mus musculus
Assay: Compound was evaluated for Carcinogenicity based on concentration necessary to produce one tumor per mouse (Strain A)

Molecule `CCCCc1ccc(N(CCCl)CCCl)cc1` has a Log 1/B+1 of 2.22.

For `Nc1cc(N)cc(N(CCCl)CCCl)c1`, the Log 1/B+1 was 4.12.

`NS(=O)(=O)c1ccc(N(CCCl)CCCl)cc1` gave a Log 1/B+1 of 1.66.

Molecule `COc1ccc(N(CCCl)CCCl)cc1` has a Log 1/B+1 of 3.4.

From ChEMBL document CHEMBL1121662 (1981)
